Reference: PMC5054527, “Mechanism of high affinity inhibition of the human urate transporter URAT1” (Scientific Reports, 2016)

Chains of the proteins cited; added tags and fusions are not shown. Residues count along the entry.
UniProt Q96S37, whole entry M22V: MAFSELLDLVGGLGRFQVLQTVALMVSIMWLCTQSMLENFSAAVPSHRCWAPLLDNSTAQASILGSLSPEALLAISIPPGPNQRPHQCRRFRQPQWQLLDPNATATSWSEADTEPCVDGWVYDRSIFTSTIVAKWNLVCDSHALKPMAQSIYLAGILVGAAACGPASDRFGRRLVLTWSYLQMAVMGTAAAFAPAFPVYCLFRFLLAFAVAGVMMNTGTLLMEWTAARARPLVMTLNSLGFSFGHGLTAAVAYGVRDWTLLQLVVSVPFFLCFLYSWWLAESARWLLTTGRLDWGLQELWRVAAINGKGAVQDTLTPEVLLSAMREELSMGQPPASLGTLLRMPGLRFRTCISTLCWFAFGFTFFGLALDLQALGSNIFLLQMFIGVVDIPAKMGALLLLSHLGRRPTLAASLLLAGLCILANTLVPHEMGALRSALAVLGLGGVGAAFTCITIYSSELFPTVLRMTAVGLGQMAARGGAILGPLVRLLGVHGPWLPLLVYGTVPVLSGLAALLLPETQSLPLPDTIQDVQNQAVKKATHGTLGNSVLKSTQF
UniProt Q96S37, whole entry V18L: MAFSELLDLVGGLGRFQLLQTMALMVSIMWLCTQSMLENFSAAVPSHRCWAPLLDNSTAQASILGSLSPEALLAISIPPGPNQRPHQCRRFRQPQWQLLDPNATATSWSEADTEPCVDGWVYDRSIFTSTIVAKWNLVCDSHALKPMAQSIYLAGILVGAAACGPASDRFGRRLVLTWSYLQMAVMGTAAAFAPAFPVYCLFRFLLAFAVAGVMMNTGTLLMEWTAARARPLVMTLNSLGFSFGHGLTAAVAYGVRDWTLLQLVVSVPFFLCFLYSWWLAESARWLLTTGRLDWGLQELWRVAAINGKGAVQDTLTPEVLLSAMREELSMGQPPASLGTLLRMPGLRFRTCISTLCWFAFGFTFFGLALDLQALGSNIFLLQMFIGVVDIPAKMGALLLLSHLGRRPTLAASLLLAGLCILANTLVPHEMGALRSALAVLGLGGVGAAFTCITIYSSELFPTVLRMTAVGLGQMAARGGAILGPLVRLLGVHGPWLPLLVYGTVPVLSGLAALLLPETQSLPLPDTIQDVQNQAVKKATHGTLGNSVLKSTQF
UniProt Q96S37, whole entry V26T: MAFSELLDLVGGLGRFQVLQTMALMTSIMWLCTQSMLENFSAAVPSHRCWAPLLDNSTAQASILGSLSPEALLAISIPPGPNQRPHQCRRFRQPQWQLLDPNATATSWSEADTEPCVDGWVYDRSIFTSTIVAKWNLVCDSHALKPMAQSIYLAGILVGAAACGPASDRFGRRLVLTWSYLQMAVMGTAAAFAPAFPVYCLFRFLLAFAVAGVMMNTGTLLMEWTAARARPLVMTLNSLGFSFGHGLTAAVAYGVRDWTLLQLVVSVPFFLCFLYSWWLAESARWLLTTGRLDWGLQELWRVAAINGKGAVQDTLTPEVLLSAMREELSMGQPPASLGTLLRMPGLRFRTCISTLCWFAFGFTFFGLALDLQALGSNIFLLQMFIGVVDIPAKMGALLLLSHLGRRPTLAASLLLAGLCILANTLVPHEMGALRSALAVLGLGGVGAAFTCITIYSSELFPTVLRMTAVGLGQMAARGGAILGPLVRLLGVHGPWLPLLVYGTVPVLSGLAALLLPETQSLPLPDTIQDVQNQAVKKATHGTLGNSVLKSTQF
UniProt Q96S37, whole entry C351F/T354M: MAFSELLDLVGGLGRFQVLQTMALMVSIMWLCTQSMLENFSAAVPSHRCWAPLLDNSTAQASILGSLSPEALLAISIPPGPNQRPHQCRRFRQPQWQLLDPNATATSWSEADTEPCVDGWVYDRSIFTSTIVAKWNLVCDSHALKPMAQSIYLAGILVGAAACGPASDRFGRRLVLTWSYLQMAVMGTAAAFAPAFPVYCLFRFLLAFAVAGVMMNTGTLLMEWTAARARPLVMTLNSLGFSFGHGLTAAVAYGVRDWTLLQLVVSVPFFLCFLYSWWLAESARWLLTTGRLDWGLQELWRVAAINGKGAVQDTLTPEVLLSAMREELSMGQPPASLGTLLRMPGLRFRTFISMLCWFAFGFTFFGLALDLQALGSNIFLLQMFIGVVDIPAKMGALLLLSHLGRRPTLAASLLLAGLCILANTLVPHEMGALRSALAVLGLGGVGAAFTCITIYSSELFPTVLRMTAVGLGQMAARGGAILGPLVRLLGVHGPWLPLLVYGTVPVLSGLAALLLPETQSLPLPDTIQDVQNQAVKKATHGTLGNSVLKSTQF
UniProt Q96S37, whole entry F365Y: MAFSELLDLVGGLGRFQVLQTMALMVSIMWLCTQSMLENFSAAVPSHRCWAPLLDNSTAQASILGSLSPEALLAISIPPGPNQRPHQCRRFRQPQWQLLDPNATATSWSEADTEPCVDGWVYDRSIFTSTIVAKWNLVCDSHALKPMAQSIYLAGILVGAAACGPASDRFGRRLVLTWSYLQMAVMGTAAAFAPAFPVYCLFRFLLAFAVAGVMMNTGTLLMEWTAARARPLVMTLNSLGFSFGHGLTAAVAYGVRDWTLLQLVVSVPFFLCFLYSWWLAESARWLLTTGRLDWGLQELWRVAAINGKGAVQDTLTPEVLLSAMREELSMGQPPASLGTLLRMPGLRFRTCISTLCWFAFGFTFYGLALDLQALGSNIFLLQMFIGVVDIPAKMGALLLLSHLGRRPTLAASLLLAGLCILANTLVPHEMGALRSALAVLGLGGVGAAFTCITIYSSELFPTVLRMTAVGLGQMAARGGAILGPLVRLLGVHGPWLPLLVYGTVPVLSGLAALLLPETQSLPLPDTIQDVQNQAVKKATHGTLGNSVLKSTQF
UniProt Q96S37, whole entry L31V: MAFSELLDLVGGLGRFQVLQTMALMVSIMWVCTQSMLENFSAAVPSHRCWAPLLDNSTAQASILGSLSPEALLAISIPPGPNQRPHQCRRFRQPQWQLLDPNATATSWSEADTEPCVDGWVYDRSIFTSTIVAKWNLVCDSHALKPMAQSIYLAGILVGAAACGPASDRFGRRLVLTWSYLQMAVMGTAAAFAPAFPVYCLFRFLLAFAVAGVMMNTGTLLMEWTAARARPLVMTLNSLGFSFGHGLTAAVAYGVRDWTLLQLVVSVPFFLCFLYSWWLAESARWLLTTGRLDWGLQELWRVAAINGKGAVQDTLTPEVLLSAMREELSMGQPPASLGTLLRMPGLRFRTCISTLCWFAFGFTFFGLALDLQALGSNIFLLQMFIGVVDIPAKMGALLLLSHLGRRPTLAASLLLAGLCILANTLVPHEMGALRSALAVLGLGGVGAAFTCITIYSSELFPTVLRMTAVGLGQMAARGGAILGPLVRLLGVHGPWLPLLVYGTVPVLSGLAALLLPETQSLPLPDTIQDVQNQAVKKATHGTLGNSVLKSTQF
UniProt Q96S37, whole entry M474V: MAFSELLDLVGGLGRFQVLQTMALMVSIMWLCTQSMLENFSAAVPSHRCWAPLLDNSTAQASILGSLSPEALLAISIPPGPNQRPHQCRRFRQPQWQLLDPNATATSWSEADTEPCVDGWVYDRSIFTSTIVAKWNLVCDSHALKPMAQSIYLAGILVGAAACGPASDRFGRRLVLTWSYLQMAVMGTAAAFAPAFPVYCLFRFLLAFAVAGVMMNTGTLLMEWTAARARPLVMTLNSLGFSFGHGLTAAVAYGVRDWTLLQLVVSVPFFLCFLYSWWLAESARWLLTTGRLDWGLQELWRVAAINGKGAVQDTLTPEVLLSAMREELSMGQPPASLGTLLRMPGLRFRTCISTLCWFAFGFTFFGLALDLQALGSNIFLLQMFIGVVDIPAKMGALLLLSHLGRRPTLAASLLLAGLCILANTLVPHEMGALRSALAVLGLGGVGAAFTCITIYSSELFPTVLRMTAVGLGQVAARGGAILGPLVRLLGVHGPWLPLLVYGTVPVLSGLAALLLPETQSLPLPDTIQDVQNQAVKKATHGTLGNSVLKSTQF
UniProt Q96S37, whole entry S35N: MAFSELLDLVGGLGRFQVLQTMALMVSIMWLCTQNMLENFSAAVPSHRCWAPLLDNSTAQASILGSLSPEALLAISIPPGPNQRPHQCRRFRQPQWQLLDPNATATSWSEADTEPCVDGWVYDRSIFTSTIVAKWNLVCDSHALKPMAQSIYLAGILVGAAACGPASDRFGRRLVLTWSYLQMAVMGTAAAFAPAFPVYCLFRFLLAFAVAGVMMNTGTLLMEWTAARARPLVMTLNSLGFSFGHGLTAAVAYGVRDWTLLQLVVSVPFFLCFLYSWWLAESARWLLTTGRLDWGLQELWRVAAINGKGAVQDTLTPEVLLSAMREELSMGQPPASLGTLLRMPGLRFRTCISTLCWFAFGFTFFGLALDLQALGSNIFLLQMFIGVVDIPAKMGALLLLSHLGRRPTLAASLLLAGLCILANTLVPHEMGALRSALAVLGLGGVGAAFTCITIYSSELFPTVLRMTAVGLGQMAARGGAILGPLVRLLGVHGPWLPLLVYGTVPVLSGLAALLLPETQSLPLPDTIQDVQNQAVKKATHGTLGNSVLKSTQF
UniProt Q96S37, whole entry M29L: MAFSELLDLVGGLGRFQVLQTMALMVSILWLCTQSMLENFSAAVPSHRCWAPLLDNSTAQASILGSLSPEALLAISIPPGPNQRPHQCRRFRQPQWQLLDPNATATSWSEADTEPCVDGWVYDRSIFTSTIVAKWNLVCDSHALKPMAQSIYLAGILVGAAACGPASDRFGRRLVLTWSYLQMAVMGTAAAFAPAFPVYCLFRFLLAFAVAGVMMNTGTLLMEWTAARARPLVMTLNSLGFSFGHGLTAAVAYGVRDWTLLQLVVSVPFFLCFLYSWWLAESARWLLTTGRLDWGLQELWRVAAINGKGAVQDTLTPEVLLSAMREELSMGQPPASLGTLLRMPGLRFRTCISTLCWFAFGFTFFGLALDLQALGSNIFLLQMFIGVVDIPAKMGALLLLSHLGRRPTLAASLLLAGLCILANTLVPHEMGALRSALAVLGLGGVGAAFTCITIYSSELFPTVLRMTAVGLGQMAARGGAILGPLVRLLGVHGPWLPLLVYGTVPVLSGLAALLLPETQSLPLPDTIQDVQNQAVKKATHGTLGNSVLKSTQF
UniProt Q96S37, whole entry C32T: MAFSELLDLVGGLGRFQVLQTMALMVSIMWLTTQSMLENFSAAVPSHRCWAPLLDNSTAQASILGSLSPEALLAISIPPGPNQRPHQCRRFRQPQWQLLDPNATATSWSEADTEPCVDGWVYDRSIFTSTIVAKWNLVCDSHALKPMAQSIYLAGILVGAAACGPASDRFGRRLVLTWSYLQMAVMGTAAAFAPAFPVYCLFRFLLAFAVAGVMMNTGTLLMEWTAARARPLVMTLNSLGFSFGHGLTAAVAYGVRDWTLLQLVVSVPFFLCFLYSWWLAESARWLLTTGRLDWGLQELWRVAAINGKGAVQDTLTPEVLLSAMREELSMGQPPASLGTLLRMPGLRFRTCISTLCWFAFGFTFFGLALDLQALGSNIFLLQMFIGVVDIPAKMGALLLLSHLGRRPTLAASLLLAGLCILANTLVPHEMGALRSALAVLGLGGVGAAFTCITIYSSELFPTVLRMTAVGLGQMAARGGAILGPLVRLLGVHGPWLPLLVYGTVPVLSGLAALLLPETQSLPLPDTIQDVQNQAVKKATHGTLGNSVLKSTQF
UniProt Q96S37, whole entry M25V: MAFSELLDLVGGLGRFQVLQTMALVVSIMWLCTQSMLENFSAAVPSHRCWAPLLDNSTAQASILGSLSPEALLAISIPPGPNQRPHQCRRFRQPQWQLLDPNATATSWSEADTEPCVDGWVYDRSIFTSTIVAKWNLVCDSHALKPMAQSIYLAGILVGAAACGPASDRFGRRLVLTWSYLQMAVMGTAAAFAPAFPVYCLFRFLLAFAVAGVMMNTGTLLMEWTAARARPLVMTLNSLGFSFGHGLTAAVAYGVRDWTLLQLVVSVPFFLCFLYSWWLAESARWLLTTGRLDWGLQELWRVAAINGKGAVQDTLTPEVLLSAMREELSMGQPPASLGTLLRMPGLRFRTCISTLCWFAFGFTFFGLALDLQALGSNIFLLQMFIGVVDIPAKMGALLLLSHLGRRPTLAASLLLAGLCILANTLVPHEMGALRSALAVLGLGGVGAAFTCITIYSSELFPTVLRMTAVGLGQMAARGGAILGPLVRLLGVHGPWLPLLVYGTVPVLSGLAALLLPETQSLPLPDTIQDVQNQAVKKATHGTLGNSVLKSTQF
UniProt Q3ZAV1, 1-99, stated change not applied: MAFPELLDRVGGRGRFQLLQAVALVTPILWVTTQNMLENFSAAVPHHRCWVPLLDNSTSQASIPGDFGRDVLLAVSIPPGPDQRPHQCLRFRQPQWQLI

Columns and labels:
[1] = molecular target: T1, h-M22V hURAT1 point mutant (Homo sapiens, UniProt Q96S37, M22V); test: URAT1 uric acid transport activity assay; format: cell-based; conditions: MES pH 5.5, 100 μM 14C-uric acid
T1 construct: expressed in transfected cells; host or cells: HEK-293T
Excerpt: (§1) hURAT1 (GenBank BC053348.1) and rURAT1 (NCBI NM_001034943.1) genes were purchased from Origene Technologies, Inc. and subcloned into pCMV6/neo using NotI, creating pCMV6/neo-hURAT1 and pCMV6/neo-rURAT1. Mutants were produced by polymerase chain reaction (PCR) or site-directed mutagenesis using the QuikChange Lightning Multi Site-Directed Mutagenesis Kit (Agilent Technologies). […] Detailed methods are provided in Supplementary Methods, and primers are listed in Supplementary Table 1. […] Residues in rURAT1 and hOAT1 that correspond to the residues in hURAT1 were identified from aligned protein sequences (Supplementary Fig. 1)[50].
(§2) DNA (10 μg) was mixed with 30 μl of DreamFect Gold (Boca Scientific) in 2 ml OptiMem (Life Technologies). After 20 minutes, 18 ml of media containing 2 × 10^7 cells in suspension was added and mixed, and 200 μl per well were plated onto white clear-bottomed poly-D-lysine coated 96-well plates (BD Biosciences). The cells were assayed the following day.
(§3) Compounds were serially diluted into assay buffer and added to the cells for 5 minutes prior to addition of radiolabelled uric acid substrate. URAT1-expressing cells were incubated with 100 μM ^14C-uric acid for 10 minutes. […] Each treatment was measured in triplicate.
(§4) Unlabelled uric acid was prepared at a 20 mM stock just prior to use in a solution containing 20 mM dibasic potassium phosphate and 20 mM potassium hydroxide.
(§5) Nonlinear regression analyses using GraphPad Prism software were used to calculate the potency of URAT1 inhibitors (IC50 values) from log (inhibitor) versus response - variable slope (four parameters) equations. Statistical significance was assessed using Student’s unpaired t-tests.

[2] = molecular target: T2, h-V18L hURAT1 point mutant (Homo sapiens, UniProt Q96S37, V18L); test: URAT1 uric acid transport activity assay; format: cell-based; conditions: MES pH 5.5, 100 μM 14C-uric acid
T2 construct: expressed in transfected cells; host or cells: HEK-293T
Excerpt: as §1, §2, §3, §4, §5

[3] = molecular target: T3, h-V26T hURAT1 point mutant (Homo sapiens, UniProt Q96S37, V26T); test: URAT1 uric acid transport activity assay; format: cell-based; conditions: MES pH 5.5, 100 μM 14C-uric acid
T3 construct: expressed in transfected cells; host or cells: HEK-293T
Excerpt: as §1, §2, §3, §4, §5

[4] = molecular target: T4, h-C351F/T354M hURAT1 double point mutant (Homo sapiens, UniProt Q96S37, C351F/T354M); test: URAT1 uric acid transport activity assay; format: cell-based; conditions: MES pH 5.5, 100 μM 14C-uric acid
T4 construct: expressed in transfected cells; host or cells: HEK-293T
Excerpt: as §1, §2, §3, §4, §5

[5] = molecular target: h-F365Y hURAT1 point mutant (Homo sapiens, UniProt Q96S37, F365Y); test: URAT1 uric acid transport activity assay; format: cell-based; conditions: MES pH 5.5, 100 μM 14C-uric acid
Excerpt: as §1, §2, §3, §4, §5

[6] = molecular target: T5, h-L31V hURAT1 point mutant (Homo sapiens, UniProt Q96S37, L31V); test: URAT1 uric acid transport activity assay; format: cell-based; conditions: MES pH 5.5, 100 μM 14C-uric acid
T5 construct: expressed in transfected cells; host or cells: HEK-293T
Excerpt: as §1, §2, §3, §4, §5

[7] = molecular target: T6, h-M474V hURAT1 point mutant (Homo sapiens, UniProt Q96S37, M474V); test: URAT1 uric acid transport activity assay; format: cell-based; conditions: MES pH 5.5, 100 μM 14C-uric acid
T6 construct: expressed in transfected cells; host or cells: HEK-293T
Excerpt: as §1, §2, §3, §4, §5

human URAT1 (hURAT1 WT) = human URAT1 (hURAT1 WT) (Homo sapiens, UniProt Q96S37); test: URAT1 uric acid transport activity assay; format: cell-based; conditions: MES pH 5.5, 100 μM 14C-uric acid
Excerpt: as §1, §2, §3, §4, §5

[8] = molecular target: h-S35N hURAT1 point mutant (Homo sapiens, UniProt Q96S37, S35N); test: URAT1 uric acid transport activity assay; format: cell-based; conditions: MES pH 5.5, 100 μM 14C-uric acid
Excerpt: as §1, §2, §3, §4, §5

[9] = molecular target: T7, h-M29L hURAT1 point mutant (Homo sapiens, UniProt Q96S37, M29L); test: URAT1 uric acid transport activity assay; format: cell-based; conditions: MES pH 5.5, 100 μM 14C-uric acid
T7 construct: expressed in transfected cells; host or cells: HEK-293T
Excerpt: as §1, §2, §3, §4, §5

[10] = molecular target: T8, h-C32T hURAT1 point mutant (Homo sapiens, UniProt Q96S37, C32T); test: URAT1 uric acid transport activity assay; format: cell-based; conditions: MES pH 5.5, 100 μM 14C-uric acid
T8 construct: expressed in transfected cells; host or cells: HEK-293T
Excerpt: as §1, §2, §3, §4, §5

[11] = molecular target: T9, h-M25V hURAT1 point mutant (Homo sapiens, UniProt Q96S37, M25V); test: URAT1 uric acid transport activity assay; format: cell-based; conditions: MES pH 5.5, 100 μM 14C-uric acid
T9 construct: expressed in transfected cells; host or cells: HEK-293T
Excerpt: as §1, §2, §3, §4, §5

[12] = molecular target: T10, h-S27P hURAT1 point mutant (Homo sapiens, UniProt Q96S37, S27P); test: URAT1 uric acid transport activity assay; format: cell-based; conditions: MES pH 5.5, 100 μM 14C-uric acid
T10 construct: expressed in transfected cells; host or cells: HEK-293T
Excerpt: as §1, §2, §3, §4, §5

[13] = molecular target: h-r EC1,TM2-4 URAT1 chimera (Homo sapiens, UniProt Q96S37, A103T/A133T/A162V/A184S/A189I/A193M/A195T/A226S/A51V/A59S/A71V/D100E/E110D/E70D/F192L/F208S/G218A/H142Q/I126T/I75V/K134T/K145R/L174R/L206V/L64P/L67F/L99I/M183V/M186S/N136D/N82D/P101S/P165H/P69R/Q182L/R124H/R89L/S107N/S46H/S66D/S68G/T128R/T219S/V117E/V198L/Y152F); test: cell-based; conditions: IC50 (uric acid transport)
Excerpt: as §1
(§6) DNA (10 μg) was mixed with 30 μl of DreamFect Gold (Boca Scientific) in 2 ml OptiMem (Life Technologies). […]
(§7) Compounds were serially diluted into assay buffer and added to the cells for 5 minutes prior to addition of radiolabelled uric acid substrate. […] Each treatment was measured in triplicate. […]
as §5

h-r IC3 URAT1 chimera = h-r IC3 URAT1 chimera (Homo sapiens, UniProt Q96S37, F348L/G295S/G307R/G309K/G331N/I305V/K308R/L287I/L321R/L328P/M330G/M343T/P317V/P333A/P334G/Q297R/Q312A/R325Q/R342H/S329N/S336R/T289V/V311E/W294Q/W300Q); test: cell-based
Excerpt: as §1, §6, §7, §5

h-r TM9-C URAT1 chimera = molecular target: T11, h-r TM9-C URAT1 chimera (Homo sapiens, UniProt Q96S37, A432I/A436S/H428R/T424I); test: URAT1 uric acid transport activity assay; format: cell-based, human/rat; conditions: MES pH 5.5, 100 μM 14C-uric acid
T11 construct: expressed in transfected cells; host or cells: HEK-293T
Excerpt: as §1, §2, §3, §4, §5

h-r TM11 URAT1 chimera = molecular target: T12, h-r TM11 URAT1 chimera (Homo sapiens, UniProt Q96S37, I481M/M474V); test: URAT1 uric acid transport activity assay; format: cell-based, human/rat; conditions: MES pH 5.5, 100 μM 14C-uric acid
T12 construct: expressed in transfected cells; host or cells: HEK-293T
Excerpt: as §1, §2, §3, §4, §5

h-r TM6 URAT1 chimera = molecular target: T13, h-r TM6 URAT1 chimera (Homo sapiens, UniProt Q96S37, C272F/L274V); test: URAT1 uric acid transport activity assay; format: cell-based, human/rat; conditions: MES pH 5.5, 100 μM 14C-uric acid
T13 construct: expressed in transfected cells; host or cells: HEK-293T
Excerpt: as §1, §2, §3, §4, §5

h-r TM9-N URAT1 chimera = molecular target: T14, h-r TM9-N URAT1 chimera (Homo sapiens, UniProt Q96S37, A411S/A416P/L414V); test: URAT1 uric acid transport activity assay; format: cell-based, human/rat; conditions: MES pH 5.5, 100 μM 14C-uric acid
T14 construct: expressed in transfected cells; host or cells: HEK-293T
Excerpt: as §1, §2, §3, §4, §5

h-r TM12 URAT1 chimera = molecular target: T15, h-r TM12 URAT1 chimera (Homo sapiens, UniProt Q96S37, H492Y/P494S/T503V); test: URAT1 uric acid transport activity assay; format: cell-based, human/rat; conditions: MES pH 5.5, 100 μM 14C-uric acid
T15 construct: expressed in transfected cells; host or cells: HEK-293T
Excerpt: as §1, §2, §3, §4, §5

h-r TM5-C URAT1 chimera = molecular target: T16, h-r TM5-C URAT1 chimera (Homo sapiens, UniProt Q96S37, A249G/A250S/G246V/H245Q); test: URAT1 uric acid transport activity assay; format: cell-based, human/rat; conditions: MES pH 5.5, 100 μM 14C-uric acid
T16 construct: expressed in transfected cells; host or cells: HEK-293T
Excerpt: as §1, §2, §3, §4, §5

[14] = molecular target: T17, h-r TM1 chimera (rURAT1 residues 1–99 and hURAT residues 100–553) (UniProt Q3ZAV1+Q96S37); test: URAT1 uric acid transport activity assay; format: cell-based, human/rat; conditions: MES pH 5.5, 100 μM 14C-uric acid
T17 construct: a chimera consisting of rURAT1 residues 1–99 and hURAT residues 100–553 (h-r TM1); expressed in transfected cells; host or cells: HEK-293T
Excerpt: as §1, §2, §3, §4, §5

h-r TM8 URAT1 chimera = molecular target: T18, h-r TM8 URAT1 chimera (Homo sapiens, UniProt Q96S37, A392V/A396S/F384L/H402R/I390L/M383A/P407L/V387I); test: URAT1 uric acid transport activity assay; format: cell-based, human/rat; conditions: MES pH 5.5, 100 μM 14C-uric acid
T18 construct: expressed in transfected cells; host or cells: HEK-293T
Excerpt: as §1, §2, §3, §4, §5

h-r TM7 URAT1 chimera = molecular target: T19, h-r TM7 URAT1 chimera (Homo sapiens, UniProt Q96S37, C351F/F365Y/T354M); test: URAT1 uric acid transport activity assay; format: cell-based, human/rat; conditions: MES pH 5.5, 100 μM 14C-uric acid
T19 construct: expressed in transfected cells; host or cells: HEK-293T
Excerpt: as §1, §2, §3, §4, §5

[15] = molecular target: T20, r-h TM1 chimera (hURAT1 residues 1–99 and rURAT1 residues 100–553) (UniProt Q3ZAV1+Q96S37); test: URAT1 uric acid transport activity assay; format: cell-based, human/rat; conditions: MES pH 5.5, 100 μM 14C-uric acid
T20 construct: The chimera r-hTM1, consisting of hURAT1 residues 1–99 and rURAT1 residues 100–553; expressed in transfected cells; host or cells: HEK-293T
Excerpt: as §1, §2, §3, §4, §5

h-r TM5-N URAT1 chimera = molecular target: T21, h-r TM5-N URAT1 chimera (Homo sapiens, UniProt Q96S37, S238A/V233M); test: URAT1 uric acid transport activity assay; format: cell-based, human/rat; conditions: MES pH 5.5, 100 μM 14C-uric acid
T21 construct: expressed in transfected cells; host or cells: HEK-293T
Excerpt: as §1, §2, §3, §4, §5

O=C(O)CSc1nnc(Br)n1-c1ccc(C2CC2)c2ccccc12 [lesinurad, 2-((5-bromo-4-(4-cyclopropylnaphthalen-1-yl)-4H-1,2,4-triazol-3-yl)thio)acetic acid]
IC50 [1]: 3.5 ± 1 µM | IC50 [2]: 2.2 ± 0.22 µM | IC50 [3]: 3.9 ± 0.51 µM | IC50 [4]: 6.3 ± 0.71 µM | IC50 [5]: 57 ± 6.1 µM | IC50 [6]: 5.3 ± 0.67 µM | IC50 [7]: 2.7 ± 0.26 µM | IC50 (human URAT1 (hURAT1 WT)): 3.5 µM | IC50 [8]: 5 ± 0.47 µM | IC50 [9]: 4.8 ± 1.3 µM | IC50 [10]: 2.9 ± 0.46 µM | IC50 [11]: 3.7 ± 0.59 µM | IC50 [12]: 1.9 ± 0.63 µM | IC50 [13]: 1.1 ± 0.54 µM | IC50 (h-r IC3 URAT1 chimera): 2.6 ± 0.66 µM | IC50 (h-r TM9-C URAT1 chimera): 6.5 ± 1.4 µM | IC50 (h-r TM11 URAT1 chimera): 16 ± 1.3 µM | IC50 (h-r TM6 URAT1 chimera): 6.8 ± 1 µM | IC50 (h-r TM9-N URAT1 chimera): 9.2 ± 3.3 µM | IC50 (h-r TM12 URAT1 chimera): 3.9 ± 1.1 µM | IC50 (h-r TM5-C URAT1 chimera): 8.5 ± 2.1 µM | IC50 [14]: 4.8 ± 1.6 µM | IC50 (h-r TM8 URAT1 chimera): 2.5 ± 0.77 µM | IC50 (h-r TM7 URAT1 chimera): 79 ± 8.3 µM | IC50 [15]: 18 ± 1.6 µM | IC50 (h-r TM5-N URAT1 chimera): 2.2 ± 0.8 µM
